Measured values published in PMC5823688 (Molecular pharmaceutics, 2017).

Key:
[1] = Serum stability of peptide macromonomers and polymers; type: in vitro ADME; details: 0 to 12 h; 400 μM in human serum, 37°C; acetonitrile extraction; MALDI-TOF MS
[2] = 0.25 mg/mL polymer, 100 mM phosphate buffer with 150 mM NaCl; for hydrodynamic diameter (DLS), unimers: pH 5.8; for hydrodynamic diameter (DLS): pH 7.4, number-average of three independently prepared formulations

| Substance | cleavage at the FKFL linker in human serum (2980 Da peak) [1] | hydrodynamic diameter (DLS), unimers [2] [nm] | hydrodynamic diameter (DLS) [2] [nm] |
| --- | --- | --- | --- |
| poly[(DEAEMA)-co-(BMA)]-b-[(PEGMA300)-c-(MaCath-BIM)] [PolCathBIM] | absent at all time points | 6 | 25 |
| poly[(DEAEMA)-co-(BMA)]-b-[(PEGMA300)-c-(MaCathScrBIM)] [PolCathScrBIM] | absent at all time points | 6 | 26 |
